Results on one substance are retold here after article PMC7737769, “Pharmacological inhibition of syntenin PDZ2 domain impairs breast cancer cell activities and exosome loading with syndecan and EpCAM cargo” (Journal of Extracellular Vesicles, 2020).

The target of this test is GST-syntenin full length (human) (UniProt O00560). Description: FRET; competition with biotinylated SDC2 peptide (HTRF). On the technique in general: In TR-FRET formats the signal depends on donor and acceptor labels being close together.

For the substance “SDC2 cognate peptide (competitor in HTRF)”, the IC50 (as a rule, the concentration that gives 50% inhibition) was 30 µM. This counts as double-digit micromolar.
